Only a part is listed here, and it is no random draw. Records with an inconclusive call do not appear. Active and inactive are the calls of the source. The call rests on the fitted dose curve; in most records, active means well fitted inhibition curve with a large enough effect; inconclusive means small, poorly fitted or top-dose-only effect; inactive means flat fitted curve, though single readings scatter.
On the % scale 0 is the no-effect control and ±100 the full control effect.

Chains of the proteins cited; added tags and fusions are not shown.
UniProt Q8TD30, whole entry: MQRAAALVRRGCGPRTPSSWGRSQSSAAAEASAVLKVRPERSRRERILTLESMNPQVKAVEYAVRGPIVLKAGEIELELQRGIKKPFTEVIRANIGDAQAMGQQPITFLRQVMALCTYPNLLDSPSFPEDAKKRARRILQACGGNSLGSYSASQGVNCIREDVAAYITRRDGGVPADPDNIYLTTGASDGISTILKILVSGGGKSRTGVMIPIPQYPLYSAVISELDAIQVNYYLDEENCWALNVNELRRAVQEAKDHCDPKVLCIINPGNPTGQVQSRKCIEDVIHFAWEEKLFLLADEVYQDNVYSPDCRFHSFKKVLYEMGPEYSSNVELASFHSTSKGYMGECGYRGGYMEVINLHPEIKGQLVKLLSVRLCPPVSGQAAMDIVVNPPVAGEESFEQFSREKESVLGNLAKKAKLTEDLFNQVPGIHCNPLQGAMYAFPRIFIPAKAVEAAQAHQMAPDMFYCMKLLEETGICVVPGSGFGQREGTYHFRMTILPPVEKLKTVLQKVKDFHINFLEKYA

The assay deals with Alanine aminotransferase 2 (Homo sapiens) (UniProt Q8TD30). Put plainly: Primary qHTS assay for inhibitors of Glutamate pyruvate transaminase 2 (GPT2). Further: nearly all actives have a fitted effect of over 60% in size. The conditions noted are these: Recombinant GPT2, coupled pyruvate oxidase/HRP Amplex Red fluorescence; activity change, negative = inhibition: at 57.7 µM (top of the series) unless noted. The procedure:
Assay Provider: Zhenghe John Wang Ph.D.
Case Western Reserve University, Cleveland OH
Glutamate pyruvate transaminase 2 (GPT2) catalyzes the reversible transamination of glutamate and pyruvate to provide a-ketoglutarate and alanine. We have optimized an assay for GPT2 enzymatic activity that couples pyruvate formation to detection of fluorescence using an established pyruvate oxidase/horseradish peroxidase / Amplex Red system.
Screening conditions were 250uM a-KG, 2mM L-alanine, and 10ng/uL GPT2 in […] of solution; 10uL of Amplex reaction mix (outlined below) were added so that final concentrations of Amplex reagents in 50uL were 0.2mM ThPP, 0.2U/mL PO and HRP, and 50uM Amplex.
NOTE: The volume of GPT2 in the system depends on the activity of it. The activity is different every batch. You need to test the activity before the assay. For full plate assay with automation, plate 20uL of GPT2 buffer to pin into, then add 10uL of GPT2 dilution followed immediately by 10uL of substrate dilution. 2 Columns of the plate were devoted to GPT2 buffer ([…] PH7.5, 0.0001% Tween) + 50uM AOA (known GPT2 inhibitor) to serve as a positive control. Complete the assay as normal. Amplex-red buffer: […] PH7.5, 1 mM EDTA, 1 mM MgCl2.
1. Combine a-KG and L-alanine at desired concentrations and incubate for at least 10 minutes at 37C. Stocks of L-alanine and a-KG are diluted in distilled water. However, the stocks were diluted in GPT2 buffer for the assay.
2. Prepare GPT2 dilution at the desired concentration in GPT2 buffer.
3. Plate 40uL of GPT2 dilution with 40uL of substrate dilution and let incubate for 30 minutes at room temperature.
4. Add 20uL of Amplex reaction mix prepared as follows: 1.5uL 200U/mL Horseradish Peroxidase, 200mM Thiamine Pyrophosphate, 200U/mL Pyruvate Oxidase; 7.5uL 10mM Amplex Red; 288uL Amplex Buffer.
5. Incubate for 30 minutes at room temperature in the dark, then image using AM_Amplex_Fluorescence on plate reader nearest the window.
(In general: In qHTS, concentration-response curves come from the screen itself.)
On to `CN(CCCl)CCCl`, for which the activity change, negative = inhibition is inactive: -17.6% and the outcome was “inactive [at 57.7 µM]”.

`CCC(=O)N(c1ccccc1)C1(COC)CCN(CCn2nnn(CC)c2=O)CC1`: the outcome was inactive.

These data come from PubChem BioAssay AID1671188 (National Center for Advancing Translational Sciences (NCATS), 2021).
